Molecules are shown by their SMILES.

The chains behind the UniProt entries cited, without tags or fusion partners. Where a name states a change or a piece, a line headed by the entry shows the natural chain unless it says otherwise.
UniProt P08238: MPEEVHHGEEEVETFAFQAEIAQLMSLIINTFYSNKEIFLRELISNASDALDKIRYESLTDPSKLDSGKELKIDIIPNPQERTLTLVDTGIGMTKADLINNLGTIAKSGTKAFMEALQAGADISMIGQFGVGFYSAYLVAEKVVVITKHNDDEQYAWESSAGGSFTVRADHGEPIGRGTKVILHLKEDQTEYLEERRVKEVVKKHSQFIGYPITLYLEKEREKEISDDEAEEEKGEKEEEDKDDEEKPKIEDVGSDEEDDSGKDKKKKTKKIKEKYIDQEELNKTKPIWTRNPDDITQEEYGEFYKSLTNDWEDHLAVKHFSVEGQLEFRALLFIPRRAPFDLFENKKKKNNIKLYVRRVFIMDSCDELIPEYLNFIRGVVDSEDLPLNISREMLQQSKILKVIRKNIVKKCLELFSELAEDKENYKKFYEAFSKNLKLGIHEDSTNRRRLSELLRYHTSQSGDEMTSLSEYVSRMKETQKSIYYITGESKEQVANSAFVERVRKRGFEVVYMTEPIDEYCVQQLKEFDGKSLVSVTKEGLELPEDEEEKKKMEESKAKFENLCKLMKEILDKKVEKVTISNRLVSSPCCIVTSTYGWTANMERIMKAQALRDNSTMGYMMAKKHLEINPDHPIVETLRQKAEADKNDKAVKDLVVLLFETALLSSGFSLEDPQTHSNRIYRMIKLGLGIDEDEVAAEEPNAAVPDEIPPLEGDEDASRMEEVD
UniProt Q16543: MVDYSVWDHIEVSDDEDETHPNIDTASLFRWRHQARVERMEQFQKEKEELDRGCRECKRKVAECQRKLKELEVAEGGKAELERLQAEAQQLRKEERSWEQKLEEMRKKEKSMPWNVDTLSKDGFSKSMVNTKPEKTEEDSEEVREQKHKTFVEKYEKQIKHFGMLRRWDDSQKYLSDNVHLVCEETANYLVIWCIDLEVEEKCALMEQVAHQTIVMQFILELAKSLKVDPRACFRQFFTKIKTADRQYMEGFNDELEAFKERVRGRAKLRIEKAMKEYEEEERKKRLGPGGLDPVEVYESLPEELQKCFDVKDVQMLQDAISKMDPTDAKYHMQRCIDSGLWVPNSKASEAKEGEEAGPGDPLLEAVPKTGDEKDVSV

For this test, the target named is Heat shock protein HSP 90-beta/Hsp90 co-chaperone Cdc37 (Homo sapiens, UniProt P08238+Q16543). Briefly: Disruption of His-tagged full length HSP90 (unknown origin)/GST-tagged Cdc37 (unknown origin) at 50 uM measured after 1 hr by HTRF method. The format is protein-complex assay. In outline:
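HTRF in PBS with […], pH 7.3: His-tagged full-length Hsp90 and GST-tagged Cdc37 (each 250 nM final) with compound, 37 °C for 1 h. Anti-GST-Cryptate and anti-6His-XL665 then added for 0.5 h at 37 °C. Time-resolved fluorescence read at ex 320 nm, em 665/620 nm; ratio (665/620) × 10 000.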
`COCCOC(=O)[C@]1(C)CC[C@]2(C)CC[C@]3(C)C4=CC=C5C(=CC(=O)C(O)=C5C)[C@]4(C)CC[C@@]3(C)[C@@H]2C1` gave an inhibition of 90.3%.

Molecule `CC1=C(O)C(=O)C=C2C1=CC=C1[C@@]2(C)CC[C@@]2(C)[C@@H]3C[C@](C)(C(=O)OCC4CCCCC4)CC[C@]3(C)CC[C@]12C` registered an inhibition of 91.4%.

`CC1=C(O)C(=O)C=C2C1=CC=C1[C@@]2(C)CC[C@@]2(C)[C@@H]3C[C@](C)(C(=O)OCc4cccc(C)c4)CC[C@]3(C)CC[C@]12C`: the inhibition stood at 90.3%.

Take `C#CCOC(=O)[C@]1(C)CC[C@]2(C)CC[C@]3(C)C4=CC=C5C(=CC(=O)C(O)=C5C)[C@]4(C)CC[C@@]3(C)[C@@H]2C1`: the inhibition was found to be 95.1%.

Molecule `CC1=C(O)C(=O)C=C2C1=CC=C1[C@@]2(C)CC[C@@]2(C)[C@@H]3C[C@](C)(C(=O)OCc4ccccc4C)CC[C@]3(C)CC[C@]12C` displayed an inhibition of 91.2%.

Source of the values: ChEMBL document CHEMBL5230144, “Synthesis and Biological Evaluation of Celastrol Derivatives with Improved Cytotoxic Selectivity and Antitumor Activities” (J Nat Prod, 2021).
